According to ChEMBL document CHEMBL3227974, “Multivariate analysis and quantitative structure-activity relationships. Inhibition of dihydrofolate reductase and thymidylate synthetase by quinazolines” (J Med Chem, 1979):

Columns and labels:
[1] = biological target: T1, Dihydrofolate reductase (Homo sapiens) (UniProt P00374)
T1 sequence (whole entry): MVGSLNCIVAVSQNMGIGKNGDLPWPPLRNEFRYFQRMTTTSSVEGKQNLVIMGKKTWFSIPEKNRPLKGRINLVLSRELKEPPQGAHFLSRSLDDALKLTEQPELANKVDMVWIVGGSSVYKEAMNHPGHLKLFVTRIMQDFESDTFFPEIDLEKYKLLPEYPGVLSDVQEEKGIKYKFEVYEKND

[2] = biological target: T2, Dihydrofolate reductase (Mus musculus) (UniProt P00375); assay: Inhibition of dihydrofolate reductase in mouse L1210R cells; type: cell-based
T2 sequence (whole entry): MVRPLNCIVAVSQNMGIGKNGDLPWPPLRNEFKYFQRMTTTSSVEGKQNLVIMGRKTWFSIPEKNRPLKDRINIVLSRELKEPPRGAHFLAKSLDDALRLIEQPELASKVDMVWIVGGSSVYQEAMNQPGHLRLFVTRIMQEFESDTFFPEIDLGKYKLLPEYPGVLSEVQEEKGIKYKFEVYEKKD

log(1/I50) [1]: 8.41
log(1/I50) [2]: 8.88
SMILES: CN(Cc1ccc2nc(N)nc(N)c2c1)c1ccc(C(=O)NC(CCC(=O)O)C(=O)O)cc1 (configuration not stated)
